From US20260199500A1, “Camptothecin Derivative, Conjugate Thereof, Preparation Method Therefor and Medical Use Thereof” (priority 2023, published 2026)
Read-outs that look alike come from different tables or passages of the source.

What was measured:
[1] = system: human gastric cancer NCI-N87 xenograft; experiment: Efficacy of ADCs in human gastric cancer NCI-N87 xenograft model (Test Example 3); assay type: in vivo, CB17 SCID mice; conditions: 1 mg/kg i.v. once
[2] = system: human breast cancer JIMT-1 xenograft; experiment: Efficacy of ADCs in human breast cancer JIMT-1 xenograft model (Test Example 4); assay type: in vivo, CB17 SCID mice; conditions: 3 mg/kg i.v. twice
[3] = system: MDA-MB-468-luc cells co-cultured with N87 cells; experiment: Bystander killing test, N87 and 468-luc cells co-cultured; assay type: cell-based; conditions: 144 h
Procedure: (§1) NCI-N87 cells (Shanghai Cell Bank of Chinese Academy of Sciences, SCSP-534) were cultured in RPMI1640 medium (Gibco, 22400-089) and 10% fetal bovine serum (BOVOGEN). MDA-MB-468-luc cells (Shanghai Cell Bank of Chinese Academy of Sciences, TCHu136) with stably transfected firefly luciferase gene (self-constructed) were cultured in DMEM medium (Gibco, 11995-065) and 10% fetal bovine serum (BOVOGEN). The cells were digested with trypsin, and three black transparent-bottom cell culture plates (Corning, 3063) were used: plate 1 was added with 1000 N87 cells/well, plate 2 was added with 1000 468-luc cells/well, plate 3 was added with 2000 N87 and 1000 468-luc mixed cells/well. and the cells were incubated overnight at 37° C. in the incubator with 5% CO2. ADC samples were diluted with medium to final concentrations of 10 nM and 1 nM, 100 μL of ADC samples was added to each well, blank media were set as a control group, and the cells were further cultured for 144 hours. 100 μL of CELL Counting-Lite 2.0 Test Reagent (Vazyme, DD1101-03) was added to each well in plate 1 and was kept in the dark for 5 minutes for coloration. […] The fluorescence value was measured by a multifunctional microplate reader (Tecan Spark) with a reading time of 200 ms. Bystander killing activity was calculated using the formula: (Control group reading−ADC group reading)/(Control group reading)×100%.

[4] = assay type: in vivo, SD rats; conditions: single dose 200 mg/kg tail vein, day 1 to day 10
Procedure: 1. Test method: SD rats were purchased from Beijing Vital River Laboratory Animal Technology Co., Ltd. and kept in SPF animal facility. Rats weighing 210 g-250 g were randomly divided into 3 groups, with 5 rats in each group, and the rats were administered with ADCs or vehicle control at a dose of 200 mg/kg via tail vein injection, with the injection day considered as day 1. Rats' body weight and food intake were measured daily, and their activity, fur condition, and any signs of diarrhea or soft stools were observed. Blood samples were collected on days 5 and 21 post-administration to test blood biochemistry and hematology parameters. The study ended on day 22 post-administration, and the rats were euthanized. Major organs (heart, liver, spleen, lungs, kidneys, etc.) were dissected and observed for gross pathological changes.

[5] = system: MDA-MB-468 breast cancer cells; experiment: Inhibitory activity of ADC on MDA-MB-468 breast cancer cells; assay type: cell-based; conditions: DAR values adjusted to DAR8, 144 h
Procedure: (§2) Day 0: Cells in good growth condition were digested and filtered, then counted. 2000 cells/100 μL medium (N87 cells) were added to each well of a 96-well plate. 1000 cells/100 μL medium were added to each well of a 96-well plate (468 cells, N87 or HCC1954). 200 μL sterile water or PBS was added to the outer wells and incubated for 24 hours.
(§3) Day 1: Samples in the medium were gradient diluted (9 gradients+1 negative control). For N87, Payload or ADC was plated: Plate 1 (T-LY21, T-LY29, T-LY33), Plate 2 (T-LY33A, T-LY22, T-LY22C), Plate 3 (T-LY34, T-LY34B, T-LY35), Plate 4 (T-LY21C, T-LY28B, T-LY28C), Plate 5 (T-LY43C, T-LY43D, T-LY43E). Each sample had two parallel controls. The initial concentration was 100 nM, followed by 8 subsequent wells with 4-fold serial dilutions. 100 μL of the corresponding sample was added to each well of the Day 0 plate, with the 11th column as the control group with culture medium. Each sample had two parallel controls with an initial concentration of 1000 nM, followed by 8 subsequent wells with 4-fold serial dilutions. […]
(§4) Day 7: After 144 hours of cell treatment, the reagent CellTiter-Glo® was dissolved 30 minutes in advance. 100 μL of the reagent was added to each well, protected from light for 2-5 minutes, and the results were read twice to obtain the average.

N87 gastric cancer cells = experiment: Inhibitory activity of ADC on N87 gastric cancer cells (CellTiter-Glo, 144 h); assay type: cell-based; conditions: DAR values adjusted to DAR8
Procedure: as §2, §3, §4

[6] = system: human gastric cancer NCI-N87 xenograft; experiment: Efficacy of ADCs in human gastric cancer NCI-N87 xenograft model (Test Example 5); assay type: in vivo, CB17 SCID mice; conditions: 1 mg/kg i.v. once
Procedure: The human gastric cancer NCI-N87 cell line (ATCC, CTL-5822) was cultured in RPMI-1640 medium (Gibco, catalog number: 22400-089, containing 10% FBS (Excell Bio, catalog number: FCS500)) in a 37° C. incubator with 500 CO2. Cells were digested with 0.25% trypsin-EDTA, washed with PBS twice, counted by a cell counter, and diluted with PBS to a cell concentration of 1×10^8 cells/mL before ten consecutive generations of cells were cultured.
CB17 SCID mice (female, 4-6 weeks of age, Beijing Vital River Laboratory Animal Technology Co., Ltd.) were used. CB17 SCID mice were acclimated to the laboratory environment for 2-5 days, NCI-N87 cells were inoculated subcutaneously into the right flank of each mouse at a dose of 5×10^6 cells/mouse in a volume of 0.1 mL (containing 50% Matrigel). When the tumor grew to approximately 100 mm^3, drug administration was performed according to the scheme shown in Table 8, and DAR values were all adjusted to 8.
Tumor volumes and body weight were measured twice a week, and the tumor proliferation rate and relative tumor inhibition rate were calculated. The calculation formulas are as follows:
[formula] • (TRTV: average RTV of the treatment group; CRTV: average RTV of the control group; RTV=Vt/VO, where VO is the tumor volume of the animal at the time of grouping, and Vt is the tumor volume of the animal after treatment).
[formula] • (T and C are relative tumor volumes (RTV) of the treatment and control groups at a specific time point, respectively);
The formula for calculating the tumor volume (V): V=½×LL×LS^2 • where LL and LS represent the long and short diameters of the tumor, respectively. At the end of the experiment, the mice were sacrificed and the tumors were cut off and weighed.

[7] = system: MDA-MB-468-luc cells (low expression of HER2); experiment: Bystander killing test, 468-luc cells alone; assay type: cell-based; conditions: ADC 1 nM and 10 nM; 144 h
Procedure: as §1

Q: With Trastuzumab Deruxtecan [T-BY1] as the substance, how does the “T/C(%) 27 days after dosing” value [1] read?
A: Its value is 18.65%.

Q: And the “TGI % 27 days after dosing” value [1]?
A: Its value is 81.35%.

Q: And the “Tumor Volume 7 days after dosing” value [1]?
A: Its value is 83.77 mm^3.

Q: And the “Tumor Volume 11 days after dosing” value [1]?
A: Its value is 123.0 mm^3.

Q: What about the “Tumor Volume 21 days after dosing” value [1] of the same substance?
A: The value was 149.44 mm^3.

Q: What about the “Tumor Volume 24 days after dosing” value [1] of the same substance?
A: The value was 148.70 mm^3.

Q: What about the “Tumor Volume 27 days after dosing” value [1] of the same substance?
A: Its value is 149.73 mm^3.

Q: And the “Tumor Volume 0 days after dosing” value ([1]; tumor approx. 200 mm^3 at start)?
A: The value was 204.14 mm^3.

Q: What about the “TC(%) 25 days after dosing” value [2] of the same substance?
A: Its value is 34.45%.

Q: And the “TGI(%) 25 days after dosing” value [2]?
A: The value was 65.55%.

Q: What about the “Tumor volume 4 days after dosing” value [2] of the same substance?
A: Its value is 159.07 mm^3.

Q: And the “Tumor volume 8 days after dosing” value [2]?
A: Its value is 168.66 mm^3.

Q: And the “Tumor volume 15 days after dosing” value [2]?
A: The value was 135.92 mm^3.

Q: And the “Tumor volume 19 days after dosing” value [2]?
A: Its value is 142.86 mm^3.

Q: And the “Tumor volume 22 days after dosing” value [2]?
A: The value was 149.41 mm^3.

Q: And the “Tumor volume 25 days after dosing” value [2]?
A: Its value is 203.64 mm^3.

Q: And the “Tumor Volume 0 days after dosing” value ([2]; tumor 150-200 mm^3 at start)?
A: Its value is 164.38 mm^3.

Q: And the “proportion of 468-luc cells killed in co-culture with N87” value ([3]; ADC 1 nM)?
A: Its value is 13.9%.

Q: What about the “proportion of 468-luc cells killed in co-culture with N87” value ([3]; ADC 10 nM) of the same substance?
A: Its value is 34.0%.

Q: What about the “body weight of rats compared with vehicle control” value ([4]; first study) of the same substance?
A: Its value is “significantly lower than that of the vehicle control”.

Q: And the “body weight of rats compared with vehicle control” value ([4]; second study)?
A: Its value is “significantly lower than that of the vehicle control”.

Q: And the IC50 [5]?
A: Its IC50 is 49.4 nM.

Q: What about the IC50 (N87 gastric cancer cells) of the same substance?
A: Its IC50 is 0.126 nM.

Q: What about the “TC(%) 28 days after dosing” value [6] of the same substance?
A: The value was 26.41%.

Q: What about the “TGI(%) 28 days after dosing” value [6] of the same substance?
A: Its value is 73.59%.

Q: And the “Tumor Volume 7 days after dosing” value [6]?
A: Its value is 147.97 mm^3.

Q: What about the “Tumor Volume 10 days after dosing” value [6] of the same substance?
A: Its value is 187.85 mm^3.

Q: What about the “Tumor Volume 13 days after dosing” value [6] of the same substance?
A: Its value is 220.18 mm^3.

Q: What about the “Tumor Volume 16 days after dosing” value [6] of the same substance?
A: Its value is 224.36 mm^3.

Q: And the “Tumor Volume 24 days after dosing” value [6]?
A: The value was 199.35 mm^3.

Q: What about the “Tumor Volume 28 days after dosing” value [6] of the same substance?
A: Its value is 210.98 mm^3.

Q: What about the “Tumor volume 19 days after dosing” value [6] of the same substance?
A: Its value is 230.25 mm^3.

Q: What about the “Tumor Volume 0 days after dosing” value ([6]; tumor approx. 100 mm^3 at start) of the same substance?
A: Its value is 98.08 mm^3.

Q: And the “killing of 468-luc cells cultured alone” value [7]?
A: The value was “basically could not kill 468-luc cells”.
